# Binding of CDR-mutated scFvs to a peptide of the spike HR2 region

Reference: Li et al. 2023, doi:10.1038/s41467-023-39022-2. File: FLAb, binding data.

Target peptide (SARS-CoV-2 spike, HR2 region): PDVDLGDISGINAS

Parent: Ab-14, a human scFv built as VH, the linker GGGGSGGGGSGGGGS, VL. Only the CDRs of the light chain vary.
VH: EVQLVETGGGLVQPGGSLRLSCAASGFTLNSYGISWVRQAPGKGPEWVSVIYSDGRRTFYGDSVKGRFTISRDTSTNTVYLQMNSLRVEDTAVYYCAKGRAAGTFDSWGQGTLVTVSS
VL: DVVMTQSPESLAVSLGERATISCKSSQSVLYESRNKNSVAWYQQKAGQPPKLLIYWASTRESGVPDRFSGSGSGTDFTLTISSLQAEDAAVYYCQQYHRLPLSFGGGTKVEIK

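The starting antibody came from a phage panning campaign against this peptide. These sequences belong to a second round, designed from the earlier measurements on random variants of the parent. Several design methods are mixed in this list. Affinity was read by AlphaSeq, a pooled yeast mating assay with surface-displayed partners. Binding brings cells together so that they mate, and sequencing counts the barcode pairs among the diploids. The ratio of observed to expected reads was calibrated, replicate by replicate, on BCL2-family standards whose Kd was known from biolayer interferometry. The assay was run in six technical replicates.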

The parent's light chain CDRs are KSSQSVLYESRNKNSVA, WASTRES, QQYHRLPLS; each variant's own CDRs replace them letter for letter. This list holds designs with at most six substitutions. Values are log10 of the apparent Kd in nM; lower means stronger binding. A pair that was not seen in that replicate is written "nd"; this usually means weak binding, but a binder can also be missed. Empty control strains, which show no peptide, gave a signal in 4% of pairings with all light chain designs; the median was 2.64 and 95% of these signals were weaker than 1.59. No background was subtracted. The authors' rule: three or more of the six replicates give a measured affinity, fewer mean a poor binder. A sequence measured in both rounds can read differently, since the two assays cover different ranges.

With KLSQSVLYESRCKNSVA / NASTRES / QQYHRLPLS the result was 0.49, 0.38, 0.36, 0.10, 0.41, 0.51.
With KSSQSVANESRNANSVA / DASTRES / QQYHRLPLS the result was 1.36, 0.80, 1.42, 1.32, 0.85, 1.17.
With YISQSVLYEDRNKNSVA / NASTRMS / QQYHRLPLS the result was -0.14, -0.26, -0.25, -0.49, -0.20, -0.15.
With KFSQSVLYEHRNRNSVA / WASTRES / QQYHRLPLS the result was 2.20, 2.51, 1.13, 1.40, 1.42, 1.80.
With KSSQSVLTESRTKNSVA / WASTRES / QQYHRLPWS the result was nd, nd, nd, nd, nd, nd.
With KSSQSVLYESRNKNPVA / WASTRVS / QQYHRLPLS the result was nd, 2.71, nd, nd, 1.63, 3.23.
With KFSQSVLYESRNKNSVA / GASTRCS / QQYHRLPLS the result was 0.12, -0.09, -0.37, -0.44, -0.41, -0.10.
With KLYQSFLYESRNKNSVA / NASTRES / QQYHRLPLS the result was 0.21, 0.17, 0.02, -0.05, 0.01, 0.09.
With KLSQSTLYESRNKNSVA / EASTRES / QQYHRLPLS the result was 0.91, 0.57, 0.64, 0.49, 0.47, 1.05.
With KSSQSVLYESDNKNSVA / WASTREK / QQYHRLPLS the result was 0.81, 1.35, 0.49, 0.95, 1.02, 0.91.
With KSSQSVLYESRNKNSVA / WAITRES / QQYHRLPLS the result was nd, nd, nd, nd, nd, nd.
With KSSQSYLYNSANKNSVA / EASTRES / QQYHRLPLS the result was nd, nd, 0.46, nd, 1.38, 2.85.
With KSSQSVLYESDNKNSVA / WATTRES / QQYHRLPLS the result was 1.53, 1.31, 1.15, 1.19, 1.20, 0.98.
With KLPQSTLYESRNKNSVA / QASQRES / QQYHRLPLS the result was 0.22, 0.36, 0.34, 0.41, -0.01, 0.37.
With KFSQSVLYESRNKNSVA / DGSTRES / QQYHRLPLS the result was -0.21, -0.16, -0.36, -0.32, -0.21, -0.03.
With KVSWSYLYESRNKNSVA / EASTREQ / QQYHRLPLS the result was 0.25, 0.19, -0.12, 0.03, -0.12, 0.45.
With KSSWSELYESNNKNSVA / HASTRED / QQYHRLPLS the result was 0.30, 0.15, 0.15, 0.22, 0.20, 0.37.
With KSSQSVLYESRNKNSVA / WASTREP / QQYHRLPLS the result was 2.02, 1.50, 1.73, 2.09, 1.81, 2.03.
With YRSQSVLYGSRNKNSVA / EASTRES / QQYHCLPLS the result was nd, nd, nd, nd, nd, nd.
With KSSQAVLYESRNKNSVA / GASTRES / QQYHRLPTS the result was 0.98, nd, 2.65, 1.65, nd, 2.70.
With KLQQSWEYESRNKNSVA / NASTRMS / QQYHRLPLS the result was 0.81, 1.29, 0.67, 1.05, 0.52, 1.42.
With KLRQSTLYESRNKNSVA / WDSTRES / QQYHRLPLS the result was nd, nd, nd, nd, 2.20, 3.76.
With KLSQSVLYESRNKNNVA / NASTRSS / QQYHRLPLS the result was 0.13, 0.37, 0.12, 0.02, 0.24, 0.42.
With KSSYSVLGESDNKNSVA / KASTRES / QQYHRLPLS the result was 0.51, 0.44, 0.33, 0.34, 0.71, 0.62.
With KISQSVLEESRYKNSVA / WASTRES / QQYHRLPFF the result was 0.88, 0.41, 1.28, 0.99, 1.43, 0.80.
With KSSQSYAYESRNKNSVA / GASTRES / QQYHRLPLS the result was 0.27, -0.20, 0.18, -0.04, 0.65, 0.07.
With KVSQSVLYESRNKMSVA / NASTRES / QQYHRLPLS the result was 0.04, 0.06, 0.02, -0.36, -0.28, 0.08.
With KVSQSALYESRNKNSVA / WASTRES / QQYHRLPLS the result was 0.59, 0.37, 0.15, -0.11, 0.50, 0.54.
With KSSQSMLYESRNKNSVA / SASTRES / QQYHRLPLS the result was 0.36, 0.29, 0.25, 0.18, 0.32, 0.45.
With KVSQSGLYESRNKWSVA / NASTRES / QQYHRLPLS the result was 0.60, 0.31, 0.29, 0.19, 0.13, 0.32.
With KSSQSKLQESRNKNSVA / HASTRES / QQYHRLPLS the result was 1.73, 1.10, 0.73, 0.82, 0.80, 0.63.
With KLSQSVLYESRNKNNVA / EASTREQ / QQYHRLPLS the result was -0.24, -0.33, -0.50, -0.64, -0.54, -0.20.
With KLSQSWMQESRNKNSVA / QASTREQ / QQYHRLPLS the result was -0.30, -0.21, -0.22, -0.54, -0.40, -0.27.
With KSQQSVPYESRNKNSVA / NASTRES / QQYHRLPLS the result was 0.43, 0.31, 0.33, 0.52, 0.56, 0.76.
With KLSQSVLYESRNKNSVA / DASQRES / QQYHRLPLS the result was 0.66, -0.35, -0.34, -1.01, -0.23, -0.66.

The first 3 variants above that were never detected:

Variant KSSQSVLTESRTKNSVA / WASTRES / QQYHRLPWS gave nd, nd, nd, nd, nd, nd.
Variant KSSQSVLYESRNKNSVA / WAITRES / QQYHRLPLS gave nd, nd, nd, nd, nd, nd.
Variant YRSQSVLYGSRNKNSVA / EASTRES / QQYHCLPLS gave nd, nd, nd, nd, nd, nd.